Measured values: ChEMBL document CHEMBL1833788, “Selective water-soluble gelatinase inhibitor prodrugs” (J Med Chem, 2011)

Sequences of proteins named here, by UniProt entry; tags and fusion partners are left off. A change or cut given only in a name is not applied to a line headed by its entry.
UniProt P08254: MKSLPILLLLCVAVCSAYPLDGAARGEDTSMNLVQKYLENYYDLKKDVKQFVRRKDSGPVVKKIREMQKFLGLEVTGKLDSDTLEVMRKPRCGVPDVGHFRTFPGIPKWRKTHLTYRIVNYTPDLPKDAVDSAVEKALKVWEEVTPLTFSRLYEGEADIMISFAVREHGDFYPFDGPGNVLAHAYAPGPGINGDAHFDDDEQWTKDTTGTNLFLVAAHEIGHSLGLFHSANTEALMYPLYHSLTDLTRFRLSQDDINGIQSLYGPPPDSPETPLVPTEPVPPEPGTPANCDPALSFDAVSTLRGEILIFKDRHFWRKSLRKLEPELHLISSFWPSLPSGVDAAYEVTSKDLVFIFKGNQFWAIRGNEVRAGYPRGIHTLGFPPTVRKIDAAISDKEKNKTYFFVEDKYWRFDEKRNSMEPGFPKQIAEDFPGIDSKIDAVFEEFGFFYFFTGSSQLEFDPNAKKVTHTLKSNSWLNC

Experiments:
[1] = biological target: T1, Matrilysin (Homo sapiens) (UniProt P09237); conditions: 250 uM
T1 sequence (whole entry): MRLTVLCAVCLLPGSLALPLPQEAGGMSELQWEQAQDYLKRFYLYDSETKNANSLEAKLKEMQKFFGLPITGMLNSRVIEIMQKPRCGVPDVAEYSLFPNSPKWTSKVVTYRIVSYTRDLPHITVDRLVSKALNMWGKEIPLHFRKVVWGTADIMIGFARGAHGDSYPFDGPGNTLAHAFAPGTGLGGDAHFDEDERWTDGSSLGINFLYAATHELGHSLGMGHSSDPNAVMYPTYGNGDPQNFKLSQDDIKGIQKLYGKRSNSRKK

[2] = biological target: T2, Interstitial collagenase (Homo sapiens) (UniProt P03956); conditions: 250 uM
T2 sequence (whole entry): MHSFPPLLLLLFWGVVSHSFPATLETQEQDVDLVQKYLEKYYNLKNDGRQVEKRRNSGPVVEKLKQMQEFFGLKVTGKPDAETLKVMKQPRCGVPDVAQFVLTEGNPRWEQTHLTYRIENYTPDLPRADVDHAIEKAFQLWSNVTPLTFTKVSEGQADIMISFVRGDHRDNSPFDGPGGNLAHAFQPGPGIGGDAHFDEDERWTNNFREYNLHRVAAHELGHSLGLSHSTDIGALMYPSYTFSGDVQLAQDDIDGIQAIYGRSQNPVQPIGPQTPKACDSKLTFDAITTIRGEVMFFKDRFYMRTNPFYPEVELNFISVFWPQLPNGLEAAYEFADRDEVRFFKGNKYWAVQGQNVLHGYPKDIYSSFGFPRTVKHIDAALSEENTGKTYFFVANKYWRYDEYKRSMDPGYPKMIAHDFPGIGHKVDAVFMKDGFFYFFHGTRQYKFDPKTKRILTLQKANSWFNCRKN

[3] = biological target: Stromelysin-1 (Homo sapiens, UniProt P08254)

Row | Structure (SMILES) | inhibition [1] | inhibition [2] | Ki [3]
1 | Nc1ccc(Oc2ccc(S(=O)(=O)CC3CS3)cc2)cc1 (stereo not drawn) [listing 1 of 2 here] | 16% | 10% | –
2 | Nc1ccc(Oc2ccc(S(=O)(=O)CC3CS3)cc2)cc1 (stereo not drawn) [listing 2 of 2 here] | – | – | 23.4 µM
